Assay results published in patent US9255110B2 (Hoffmann-La Roche Inc., priority 2010, dated 2016).

The chains behind the UniProt entries cited, without tags or fusion partners.
UniProt Q9NWZ3, whole entry, species assumed: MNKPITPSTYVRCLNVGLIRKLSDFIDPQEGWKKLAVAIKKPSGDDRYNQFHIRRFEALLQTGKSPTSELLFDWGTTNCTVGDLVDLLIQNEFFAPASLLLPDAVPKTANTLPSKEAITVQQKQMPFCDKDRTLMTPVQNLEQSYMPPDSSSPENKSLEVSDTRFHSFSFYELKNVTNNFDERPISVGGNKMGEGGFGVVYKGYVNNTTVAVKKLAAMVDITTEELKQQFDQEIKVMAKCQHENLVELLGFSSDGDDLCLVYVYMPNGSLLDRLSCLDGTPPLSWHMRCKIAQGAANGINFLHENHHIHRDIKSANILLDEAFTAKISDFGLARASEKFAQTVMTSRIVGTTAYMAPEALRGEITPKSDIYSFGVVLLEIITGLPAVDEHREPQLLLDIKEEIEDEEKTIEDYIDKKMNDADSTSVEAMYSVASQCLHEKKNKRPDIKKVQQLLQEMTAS

Legend:
human full length SYK = human full length SYK (Homo sapiens (Human), UniProt P43405); test: In vitro SYK kinase assay; type: biochemical; conditions: 20 uM ATP, 33P peptide phosphorylation
Description: Spleen tyrosine kinase (SYK) is a tyrosine kinase that plays an important role in B cell signal transduction. SYK activity is measured by phosphorylation of a peptide substrate (Biotin-EPEGDYEEVLE) with [gamma-^33P] ATP. The enzyme reaction was conducted at 20 uM ATP with 0.05 uCi [gamma-^33P]ATP (2 uCi for 40 ul assay) and 10 uM peptide substrate at final volume of 40 ul in buffer containing 50 mM Hepes, pH 7.2, 1 mM dithiothreitol, 10 mM MgCl2, 100 uM Na3VO4, 0.1% BSA and 10% DMSO. The enzyme assay was carried out with human full length SYK in the presence or absence of ten compound concentrations. SYK and compound were pre-incubated for 10 minutes. Then, the enzymatic reaction was initiated by addition of ATP and peptide substrate. The reaction mixture was incubated at room temperature for 30 minutes. At the end of incubation, the reaction was terminated by transferring 25 ul of the reaction mixture to 100 ul of 10% streptavidin slurry containing 100 mM EDTA. […] Then the incorporation of ^33P into peptide substrate was quantified on a microplate scintillation counter. Compound inhibition potency on SYK was measured by IC50 value generated from ten concentration inhibition curve fitted into the 3-parameter model: % inhibition=Maximum/(1+(IC50/[Inhibitor])^slope). Data were analyzed on Microsoft Excel for parameter estimation.

IRAK-4 = IRAK-4 (Homo sapiens (Human), UniProt Q9NWZ3); test: In vitro IRAK-4 kinase assay; type: biochemical; conditions: purified recombinant IRAK-4, 50 uM ATP, 33P peptide phosphorylation
Description: Purified recombinant IRAK-4 protein was incubated with 250 uM synthetic peptide ([…]) in 30 ul of kinase buffer including (20 mM MOPS pH7.2, 25 mM beta glycerol phosphate, 5 mM EGTA, 1 mM sodium orthovanadate, 1 mM DTT, 50 uM ATP, 20 mM MgCl2, 10 uCi γ-^33P, 0.1% BSA) for the indicated time. For purified recombinant IRAK-1 protein kinase assay, 50 uM ATP was used. A 25 ul aliquot of the reaction mixture was transferred on to p81 phosphocellulose squares (Upstate Biotechnology, Lake Placid, N.Y.). The assay squares were washed three times with 0.75% phosphoric acid and once with acetone. Enzyme activity was measured by determining the bound radioactivity by liquid scintillation counting.

2-(cis-2-amino-cyclohexylamino)-thieno[3,2-d]pyrimidine-7-carboxylic acid (2,4-dimethoxy-phenyl)-amide [Example 26]
IC50 (human full length SYK): 725 nM
IC50 (IRAK-4): 31 nM
